Measured values from patent US8969335B2, “Benzonitrile derivatives as kinase inhibitors” (MERCK PATENT GmbH, priority 2011, dated 2015).

Sequences of proteins named here, by UniProt entry; tags and fusion partners are left off. A change or cut given only in a name is not applied to a line headed by its entry.
UniProt Q14164: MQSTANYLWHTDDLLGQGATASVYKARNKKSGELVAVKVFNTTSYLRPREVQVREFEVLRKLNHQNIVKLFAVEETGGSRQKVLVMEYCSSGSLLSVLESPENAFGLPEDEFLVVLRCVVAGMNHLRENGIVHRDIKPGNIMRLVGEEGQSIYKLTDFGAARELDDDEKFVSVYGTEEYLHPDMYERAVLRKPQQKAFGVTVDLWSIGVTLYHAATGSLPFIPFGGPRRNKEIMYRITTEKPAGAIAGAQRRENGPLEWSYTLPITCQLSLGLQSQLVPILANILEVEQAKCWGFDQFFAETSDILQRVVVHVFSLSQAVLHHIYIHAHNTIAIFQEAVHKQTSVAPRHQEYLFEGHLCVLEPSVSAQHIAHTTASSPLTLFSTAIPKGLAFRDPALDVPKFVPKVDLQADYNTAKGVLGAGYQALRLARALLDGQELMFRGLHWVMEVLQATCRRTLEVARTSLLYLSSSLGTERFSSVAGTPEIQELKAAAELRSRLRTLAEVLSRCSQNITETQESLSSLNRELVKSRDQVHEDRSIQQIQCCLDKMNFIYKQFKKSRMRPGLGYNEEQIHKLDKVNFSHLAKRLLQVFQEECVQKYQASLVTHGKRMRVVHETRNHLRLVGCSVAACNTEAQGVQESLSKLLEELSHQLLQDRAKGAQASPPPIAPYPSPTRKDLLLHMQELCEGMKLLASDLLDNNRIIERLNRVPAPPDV
UniProt Q9UHD2: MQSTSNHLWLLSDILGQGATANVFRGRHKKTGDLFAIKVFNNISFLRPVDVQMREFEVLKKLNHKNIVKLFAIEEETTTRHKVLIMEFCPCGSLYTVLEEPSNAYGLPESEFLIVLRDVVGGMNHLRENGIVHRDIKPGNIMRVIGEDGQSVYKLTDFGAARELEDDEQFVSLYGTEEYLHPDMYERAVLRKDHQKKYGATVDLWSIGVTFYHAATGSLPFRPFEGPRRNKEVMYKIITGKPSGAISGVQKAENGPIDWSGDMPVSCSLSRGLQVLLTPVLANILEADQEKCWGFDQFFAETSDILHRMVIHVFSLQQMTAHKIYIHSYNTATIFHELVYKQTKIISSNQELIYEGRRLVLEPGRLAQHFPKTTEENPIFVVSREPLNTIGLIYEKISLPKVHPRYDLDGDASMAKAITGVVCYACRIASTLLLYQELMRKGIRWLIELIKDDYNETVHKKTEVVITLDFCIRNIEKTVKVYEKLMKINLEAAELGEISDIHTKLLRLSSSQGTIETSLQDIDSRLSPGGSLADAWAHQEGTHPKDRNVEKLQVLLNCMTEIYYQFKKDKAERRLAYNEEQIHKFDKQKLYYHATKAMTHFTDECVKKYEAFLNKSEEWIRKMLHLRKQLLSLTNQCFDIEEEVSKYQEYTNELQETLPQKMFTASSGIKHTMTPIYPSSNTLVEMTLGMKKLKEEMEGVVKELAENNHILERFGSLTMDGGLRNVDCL

Legend:
IKKε = IKKε (Homo sapiens (Human), UniProt Q14164); assay: IKKε kinase assay (384-well flashplate assay); type: biochemical; conditions: 1 nM IKKε, 10 μM ATP, 30° C., 2 hours; read-out: IKKε enzyme assay IC50
Protocol: Test for the Inhibition of IKKε
IKKε—Kinase Assay (IKKepsilon)
(§1) The kinase assay is performed as 384-well flashplate assay (for example for Topcount measurement).
1 nM IKKε, 800 nM biotinylated IκBα(19-42) peptide (Biotin-C6-C6-[…]) and 10 μM ATP (spiked with 0.3 μCi of ^33P-ATP/well) are incubated at 30° C. for 2 hours in a total volume of 50 μl (10 mM MOPS, 10 mM Mg acetate, 0.1 mM EGTA, 1 mM dithiothreitol, 0.02% of Brij35, 0.1% of BSA, 0.1% of BioStab, pH 7.5) with or without test compound. The reaction is stopped using 25 μl of 200 mM EDTA. After 30 min at room temperature, the liquid is removed, and each well is washed three times with 100 μl of 0.9% sodium chloride solution. Non-specific reaction is determined in the presence of 3 μM MSC2119074 (BX-795). The radioactivity is measured using a Topcount (PerkinElmer). The results (for example IC50 values) are calculated using program tools provided by the IT Department (for example AssayExplorer, Symyx).

[1] = target: TANK binding kinase (TBK1) (Homo sapiens (Human), UniProt Q9UHD2); assay: TBK1 enzyme assay (384-well flashplate kinase assay); type: biochemical; conditions: 0.6 nM TBK1, 10 μM ATP, 30° C., 120 min
Protocol: Test for the Inhibition of TBK1
as §1
0.6 nM TANK binding kinase (TBK1), 800 nM biotinylated MELK-derived peptide (Biotin-Ah-Ah-[…]) and 10 μM ATP (spiked with 0.25 μCi of ^33P-ATP/well) are incubated at 30° C. for 120 min in a total volume of 50 μl (10 mM MOPS, 10 mM Mg acetate, 0.1 mM EGTA, 1 mM DTT, 0.02% of Brij35, 0.1% of BSA, pH 7.5) with or without test compound. The reaction is stopped with 25 μl of 200 mM EDTA. After 30 min at room temperature, the liquid is removed, and each well is washed three times with 100 μl of 0.9% sodium chloride solution. Non-specific reaction is measured in the presence of 100 nM staurosporine. The radioactivity is measured in a Topcount (PerkinElmer). The results (for example IC50 values) are calculated using program tools provided by the IT Department (for example AssayExplorer, Symyx).

**Q.** What does the source list for N#Cc1cc(-c2ccnc(Nc3cn[nH]c3)n2)ccc1OC1CCOCC1 [Compound A34, 5-[2-(1H-Pyrazol-4-ylamino)pyrimidin-4-yl]-2-(tetrahydropyran-4-yloxy)benzonitrile]?
**A.** IC50 (IKKε): 6 nM; IC50 [1]: 6 nM
